This note sets out measurements from PMC7919060 (ACS chemical neuroscience, 2020).

The target of data set [1] is T1, GlcCer synthase (Canis lupus familiaris, UniProt A0A8I3MXG6).
T1 sequence (A0A8I3MXG6 1-394): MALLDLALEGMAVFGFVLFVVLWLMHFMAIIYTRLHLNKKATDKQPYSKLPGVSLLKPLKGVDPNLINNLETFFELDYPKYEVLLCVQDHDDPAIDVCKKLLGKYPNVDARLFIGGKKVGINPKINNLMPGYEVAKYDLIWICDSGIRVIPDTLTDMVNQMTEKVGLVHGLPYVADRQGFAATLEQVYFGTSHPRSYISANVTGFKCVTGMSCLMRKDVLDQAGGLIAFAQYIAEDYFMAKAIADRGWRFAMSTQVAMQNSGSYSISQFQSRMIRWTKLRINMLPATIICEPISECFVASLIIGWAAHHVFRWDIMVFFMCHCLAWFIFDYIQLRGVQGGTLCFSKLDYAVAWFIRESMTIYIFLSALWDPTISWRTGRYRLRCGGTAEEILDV
The data set can be described thus: MDCK cell assay for reduction in glucosylceramide. The class given is cell-based, canine.

The test system of the next data set is P-glycoprotein (MDR1). The data set can be described thus: Permeability and efflux in MDR1-MDCK cell monolayer. The data set is classed as in vitro ADME. The note with it: dog.
Data set [2] concerns the target T1, GlcCer synthase. The data set can be described thus: Broken cell. The data set is classed as biochemical, canine.

For `COc1ccc([C@@H](O)[C@@H](CN2CCCC2)NC(=O)CC2Cc3ccccc3C2)cc1F` [Compound 15, 2-(2,3-Dihydro-1H-inden-2-yl)-N-((1R,2R)-1-(3-fluoro-4-methoxyphenyl)-1-hydroxy-3-(pyrrolidin-1-yl)propan-2-yl)acetamide], the IC50 (in general, the point on the concentration scale where inhibition reaches its midpoint) against GlcCer synthase [1] came to 2.7 nM.

For `CC(C)(NC(=O)O[C@@H]1CN2CCC1CC2)c1csc(-c2ccc(F)cc2)n1` [Compound 3, reference compound], the IC50 at GlcCer synthase [1] is 37 nM; against GlcCer synthase [2] it was 240 nM. In addition, in the data set on P-glycoprotein (MDR1), the efflux ratio (as a rule, a quotient of directional permeabilities that is used to spot active efflux) worked out at 84.
